Data on 1 variant can be found in IntAct's records for PubMed 7527023.

First the molecules themselves.
B1: Tumor necrosis factor receptor superfamily member 5 (Homo sapiens), P25942 (parent)
chain: MVRLPLQCVLWGCLLTAVHPEPPTACREKQYLINSQCCSLCQPGQKLVSDCTEFTETECLPCGESEFLDTWNRETHCHQHKYCDPNLGLRVQQKGTSETDTICTCEEGWHCTSEACESCVLHRSCSPGFGVKQIATGVSDTICEPCPVGFFSNVSSAFEKCHPWTSCETKDLVVQQAGTNKTDVVCGPQDRLRALVVIPIIFGILFAILLVLVFIKKVAKKPTNKAPHPKQEPQEINFPDDLPGSNTAAPVQETLHGCQPVTQEDGKESRISVQERQ
partner: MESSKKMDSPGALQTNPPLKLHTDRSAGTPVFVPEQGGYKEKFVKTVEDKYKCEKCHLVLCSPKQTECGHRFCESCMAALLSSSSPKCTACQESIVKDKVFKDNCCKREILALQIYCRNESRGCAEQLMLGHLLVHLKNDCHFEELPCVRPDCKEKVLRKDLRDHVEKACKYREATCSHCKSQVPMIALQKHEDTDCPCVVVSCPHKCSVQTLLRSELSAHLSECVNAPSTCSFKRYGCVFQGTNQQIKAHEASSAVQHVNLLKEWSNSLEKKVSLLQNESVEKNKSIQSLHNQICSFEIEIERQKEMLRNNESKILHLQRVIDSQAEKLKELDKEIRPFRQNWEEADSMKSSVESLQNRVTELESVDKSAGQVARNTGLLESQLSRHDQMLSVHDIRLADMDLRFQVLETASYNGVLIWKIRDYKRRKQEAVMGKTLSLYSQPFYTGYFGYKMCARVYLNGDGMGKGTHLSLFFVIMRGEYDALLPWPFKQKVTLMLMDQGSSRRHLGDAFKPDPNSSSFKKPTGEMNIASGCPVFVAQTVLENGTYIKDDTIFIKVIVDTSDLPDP

The variants in the experiment derive from B1. The settings on record: with traf3_human TRAF3, Q13114.
Regarding T254A, the “effect of a mutation on the interaction” value is given as “decreasing interaction”.
